System: patients with mCRPC with HRR gene alterations
Assay: TALAPRO-2 (NCT03395197) Phase 3, Part 2, DDR/HRR-deficient cohort (Cohort 2): efficacy
Type: in vivo, human
Conditions: for Median rPFS by BICR: BRCA1/2 mutations (BRCAm) subgroup
Method: In one embodiment, the increase in survival is measured by any of the following: progression free survival (PFS), radiographic PFS (rPFS), and overall survival (OS). PFS, rPFS and OS are clinically meaningful endpoints for measuring an increase in survival for patients treated with the combination of the present invention. […] OS is the length of time from either the date of diagnosis or the start of treatment for a disease, such as cancer, that patients diagnosed with the disease are still alive. In a clinical trial, measuring the PFS and OS are ways to see how well a new treatment works. For purposes of the clinical trial described here, rPFS refers to the time from the date of randomization to first objective evidence of radiographic progression assessed in soft tissue per Response Evaluation Criteria in Solid Tumors version 1.1 (RECIST 1.1) or in bone (upon subsequent confirmation) per Prostate Cancer Working Group (PCWG3) guidelines by Blinded Independent Central Review (BICR), or death, whichever occurs first. […]
Part 2 was randomized, double-blind, and placebo-controlled and evaluated the efficacy and safety of talazoparib in combination with enzalutamide compared with placebo in combination with enzalutamide. […] Stratification factors were specified by the investigator, and recorded in the interactive web response system (IWRS) before randomization and used for the stratified analysis of the primary efficacy endpoint. […]
Genomic screening to identify alterations in DDR genes was optional for patients in Part 1, but it was required for randomization in Part 2. Mutational status was determined by testing for the presence of mutations in defined DDR genes likely to sensitize to PARP inhibition using next generation sequencing (NGS) based gene panel test. […] For exploratory analysis, available blood-based samples (not collected in China) were retrospectively tested using FoundationOneLiquid® CDx to determine the status of patients with a prospectively-assessed status of unknown.

CNC(=O)c1ccc(N2C(=S)N(c3ccc(C#N)c(C(F)(F)F)c3)C(=O)C2(C)C)cc1F [Placebo + Enzalutamide] was tested, and the “Median rPFS by BICR” value was 11 months, the “Median rPFS by BICR” value (listed as Placebo with Enzalutamide) was 11.0 (8.3, 11.1) months and the “Median time to PSA progression” value (DDR-deficient population) was 11.1 months.

Reference: patent US20260207589A1, “Combination of Talazoparib and Enzalutamide in the Treatment of Metastatic Castration-Resistant Prostate Cancer” (Pfizer Inc., priority 2022, published 2026)
